By UniProt entry, the sequences of proteins in these tests, tags left out. Residues count along the entry.
UniProt P43235, 115-329 limits assumed: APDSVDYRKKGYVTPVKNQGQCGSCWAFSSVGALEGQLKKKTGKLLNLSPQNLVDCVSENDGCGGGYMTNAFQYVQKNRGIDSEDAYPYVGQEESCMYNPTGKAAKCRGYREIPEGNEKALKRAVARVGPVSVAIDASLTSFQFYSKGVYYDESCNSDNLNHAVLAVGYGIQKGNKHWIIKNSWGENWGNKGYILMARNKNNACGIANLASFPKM

In patent publication US8053437B2, “Furo[3. 2-B] pyrrol derivatives” (Amura Therapeutics Limited, priority 2006, dated 2011):

The compounds below were run against Human recombinant cathepsin K (Homo sapiens, UniProt P43235) (assay: In vitro cathepsin Ki inhibition measurements). Conditions: read-out: Ki (nM) vs Human Cathepsin K, prior art WO-A-02057270 examples.
Format: biochemical

Ki	Compound
> 2000 nM	CC(C)C[C@H](NC(=O)c1csc(-c2cccnc2)n1)C(=O)N1CC[C@H]2OCC(=O)[C@H]21
> 8000 nM	CC(C)(C)c1ccc(C(=O)N[C@@H](Cc2cccc(O)c2)C(=O)N2CC[C@H]3OCC(=O)[C@H]32)cc1
> 3000 nM	CC(C)C[C@H](NC(=O)c1cncc(-c2cccs2)c1)C(=O)N1CC[C@H]2OCC(=O)[C@H]21
> 10000 nM	O=C(N[C@@H](Cc1ccccc1)C(=O)N1CC[C@H]2OCC(=O)[C@H]21)c1ccoc1
